This passage reports IC50 results from patent US8809350B2, “Purine and pyrimidine CDK inhibitors and their use for the treatment of autoimmune diseases” (priority 2004, dated 2014).

Protein sequences, listed by entry. Tags and fused reporters are not part of them. Lines headed by an entry give the natural chain unless they say otherwise; changes in a name come on top.
UniProt P11802: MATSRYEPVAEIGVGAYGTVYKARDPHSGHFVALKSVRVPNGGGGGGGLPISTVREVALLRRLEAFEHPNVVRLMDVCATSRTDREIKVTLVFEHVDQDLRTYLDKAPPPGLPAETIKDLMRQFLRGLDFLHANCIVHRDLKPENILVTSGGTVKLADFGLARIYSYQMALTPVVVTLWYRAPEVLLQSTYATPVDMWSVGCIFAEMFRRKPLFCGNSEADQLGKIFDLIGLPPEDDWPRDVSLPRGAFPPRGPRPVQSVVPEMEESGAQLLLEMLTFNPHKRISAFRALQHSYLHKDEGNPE

The target in this experiment is CDK4D1 (Homo sapiens, UniProt P11802). Description: In-house kinase assay (32P incorporation). Type of experiment: biochemical.

The structures appear in SMILES notation. pIC50: −log10 of the molar value.

As for `Cn1cnc2c(NCc3ccccc3)nc(NCCO)nc21` [Compound 3], the negative-log IC50 (pIC50) is less than 4.00.

By pIC50 is commonly meant −log10 of the IC50, conventionally taken in molar units. High values mean a small IC50, low ones a large IC50.
